From patent US11116760B2 (Gilead Sciences, Inc., priority 2018, dated 2021)

Protein sequences, listed by entry. Tags and fused reporters are not part of them. Residues count along the entry.
UniProt P13612, 34-1032: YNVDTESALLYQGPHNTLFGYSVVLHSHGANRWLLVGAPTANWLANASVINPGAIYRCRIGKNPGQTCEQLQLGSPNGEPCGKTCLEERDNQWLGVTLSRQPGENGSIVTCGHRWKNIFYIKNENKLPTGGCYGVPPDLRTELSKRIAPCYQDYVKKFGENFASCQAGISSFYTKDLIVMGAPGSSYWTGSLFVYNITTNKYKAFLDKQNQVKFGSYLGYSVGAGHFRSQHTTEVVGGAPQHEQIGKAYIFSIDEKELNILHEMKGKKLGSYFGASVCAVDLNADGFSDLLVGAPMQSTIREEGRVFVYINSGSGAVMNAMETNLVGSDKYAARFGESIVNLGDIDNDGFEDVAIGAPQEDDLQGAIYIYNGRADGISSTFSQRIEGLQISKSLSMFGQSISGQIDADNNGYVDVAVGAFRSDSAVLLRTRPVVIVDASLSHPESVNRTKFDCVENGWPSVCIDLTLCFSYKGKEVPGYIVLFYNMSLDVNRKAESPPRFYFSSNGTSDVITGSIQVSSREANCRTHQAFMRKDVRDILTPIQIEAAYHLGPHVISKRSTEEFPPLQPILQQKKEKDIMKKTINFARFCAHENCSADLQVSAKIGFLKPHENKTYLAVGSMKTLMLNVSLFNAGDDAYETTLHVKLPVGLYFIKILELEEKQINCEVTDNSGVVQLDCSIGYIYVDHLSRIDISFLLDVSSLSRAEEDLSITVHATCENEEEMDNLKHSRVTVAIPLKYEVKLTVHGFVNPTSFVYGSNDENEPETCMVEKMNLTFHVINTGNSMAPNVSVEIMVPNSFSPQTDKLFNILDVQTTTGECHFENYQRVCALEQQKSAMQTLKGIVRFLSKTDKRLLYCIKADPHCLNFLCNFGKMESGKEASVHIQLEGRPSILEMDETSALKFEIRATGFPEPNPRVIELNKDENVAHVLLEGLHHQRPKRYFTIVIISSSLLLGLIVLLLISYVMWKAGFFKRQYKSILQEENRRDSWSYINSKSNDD
UniProt P26010, 20-798: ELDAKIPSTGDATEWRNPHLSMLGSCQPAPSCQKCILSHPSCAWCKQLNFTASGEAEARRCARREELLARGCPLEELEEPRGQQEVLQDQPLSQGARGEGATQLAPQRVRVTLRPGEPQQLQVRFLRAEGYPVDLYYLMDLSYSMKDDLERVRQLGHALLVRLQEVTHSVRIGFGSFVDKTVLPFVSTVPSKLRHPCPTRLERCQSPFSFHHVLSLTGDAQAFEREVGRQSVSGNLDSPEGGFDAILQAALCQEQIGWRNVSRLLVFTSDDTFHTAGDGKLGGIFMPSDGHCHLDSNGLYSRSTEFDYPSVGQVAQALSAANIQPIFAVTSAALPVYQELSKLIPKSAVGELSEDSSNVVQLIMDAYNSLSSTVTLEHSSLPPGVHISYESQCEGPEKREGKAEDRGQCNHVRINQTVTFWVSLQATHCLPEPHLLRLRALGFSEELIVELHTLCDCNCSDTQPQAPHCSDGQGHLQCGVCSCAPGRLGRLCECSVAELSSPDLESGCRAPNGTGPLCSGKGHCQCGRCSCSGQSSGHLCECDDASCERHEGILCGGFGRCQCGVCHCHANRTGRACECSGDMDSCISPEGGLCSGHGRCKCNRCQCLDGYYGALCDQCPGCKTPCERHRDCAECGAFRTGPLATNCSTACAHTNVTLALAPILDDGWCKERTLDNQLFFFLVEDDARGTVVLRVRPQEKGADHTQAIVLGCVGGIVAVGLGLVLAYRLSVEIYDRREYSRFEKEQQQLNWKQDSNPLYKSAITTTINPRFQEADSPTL

Target: α4β7 integrin (Homo sapiens (Human), UniProt P13612+P26010)
Assay: α4β7 Integrin Cell Capture Assay
Format: cell-based
Experimental: α4β7 Integrin Cell Capture Assay
The potency of inhibitors in preventing α4β7 integrin interaction with MadCAM-1 was measured by monitoring the capture of α4β7 integrin expressing cells on a recombinant MadCAM-1 extracellular domain-coated plate. […] The plates were then washed with PBS and blocked with 3% BSA for 2 hours before being washed again.
RPM18866 cells were spun down and re-suspended in assay medium (DMEM+0.5% FBS+0.5 mM MnCl2) at a density of 0.5×10^6 cells/mL. […] The plates were incubated at 37° C. for 1 hour. 50 μL of cells were transferred to the blocked, MadCAM-1-coated plates and incubated for 30 minutes at 37° C. […] The plates were incubated for 90 minutes at room temperature. The plates were then washed 3 times with 70 μL of PBS per well and imaged on a Cellomics ArrayScan instrument. The cells that were bound to the plate were counted and plotted against the compound concentration to determine the EC50 of the test compounds.

EC50: 0.4 nM
SMILES: CC[C@@H](Nc1cc(F)c(C(=O)N[C@@H](Cc2ccc(-c3cc4cnccc4n(C)c3=O)c3ncccc23)C(=O)O)c(F)c1)C(F)(F)F [Example 112, (S)-2-(2,6-difluoro-4-(((R)-1,1,1-trifluorobutan-2-yl)amino)benzamido)-3-(8-(1-methyl-2-oxo-1,2-dihydro-1,6-naphthyridin-3-yl)quinolin-5-yl)propanoic acid]
